1 protein from paper PMC3762770, “Small Molecule Suppressors of Drosophila Kinesin Deficiency Rescue Motor Axon Development in a Zebrafish Model of Spinal Muscular Atrophy” (PLoS ONE, 2013) can be followed below.

Substrate in this data set: Nc1ncnc2c1ncn2[C@@H]1O[C@H](COP(=O)(O)OP(=O)(O)OP(=O)(O)O)[C@@H](O)[C@H]1O
Briefly: enzyme kinetics (Km) in radiometric kinase assay. The class given is biochemical, Homo sapiens.

For orientation: Km means the substrate concentration at which the rate is half of its maximum.

B1: GSK-3β (Homo sapiens) (protein)
chain: MSGRPRTTSFAESCKPVQQPSAFGSMKVSRDKDGSKVTTVVATPGQGPDRPQEVSYTDTKVIGNGSFGVVYQAKLCDSGELVAIKKVLQDKRFKNRELQIMRKLDHCNIVRLRYFFYSSGEKKDEVYLNLVLDYVPETVYRVARHYSRAKQTLPVIYVKLYMYQLFRSLAYIHSFGICHRDIKPQNLLLDPDTAVLKLCDFGSAKQLVRGEPNVSYICSRYYRAPELIFGATDYTSSIDVWSAGCVLAELLLGQPIFPGDSGVDQLVEIIKVLGTPTREQIREMNPNYTEFKFPQIKAHPWTKVFRPRTPPEAIALCSRLLEYTPTARLTPLEACAHSFFDELRDPNVKLPNGRDTPALFNFTTQELSSNPPLATILIPPHARIQAAASTPTNATAASDANTGDRGQTNNAASASASNST
notes: N-terminally His-tagged protein expressed in Sf9 cells (NP_002084.2)
Turning to B1, the Michaelis constant (Km) amounted to 24 ± 4.5 µM.
